Experimental melting point values from OPERA 2.9

The melting point is given in degrees Celsius.
The databases behind each value are named after "via".

CC(=O)C(C#N)c1ccc(Cl)cc1 (configuration not stated) [Benzeneacetonitrile, .alpha.-acetyl-4-chloro-] has MP 130 °C (via OCHEM). The entry for C/C=C1/C[C@@H](C)[C@@](C)(O)C(=O)OC[C@H]2CCN3CC[C@@H](OC1=O)[C@@H]23 [Platyphylline] lists MP 129 °C (via OCHEM). For Clc1ccc(-c2cc(Cl)c(Cl)cc2Cl)cc1Cl [2,3',4,4',5-Pentachlorobiphenyl] the data give MP 109 °C (via QSARDB). CC1=NNC(=O)C1(Br)Br [4,4-Dibromo-3-methyl-2-pyrazolin-5-one] has MP 130.5 °C (via OCHEM). c1ccc2c(c1)ccc1c3ccc4ccccc4c3[nH]c21 [1,2;7,8-Dibenzocarbazole] is reported with MP 216 °C (via QSARDB). O=C(NC(O)C(Cl)(Cl)Cl)NC(O)C(Cl)(Cl)Cl (configuration not stated) [Dichloralurea] has MP 196 °C (via PubChem). The entry for O=C(O)c1cccc(S(=O)(=O)F)c1 [3-(Fluorosulphonyl)benzoic acid] lists MP 153 °C (via OCHEM).

The entry for CC(C)OC(=O)Oc1ccccc1C(=O)OOC(=O)c1ccccc1 lists MP 69 °C (via eChemPortal). Listed for C[N+](C)(C)Cc1ccccc1.[Br-] [N,N,N-Trimethyl(phenyl)methanaminium bromide]: MP 231 °C (via OCHEM). Listed for Cc1nnc(NC(=O)CCl)s1 [2-Chloro-N-(5-methyl-1,3,4-thiadiazol-2-yl)acetamide]: MP 231 °C (via OCHEM). Cc1nnc(CCl)o1 [2-(chloromethyl)-5-methyl-1,3,4-oxadiazole] is reported with MP 36 °C (via OCHEM). For O=C1NC(=O)C2(CCCCC2)C(=O)N1 [2,4-Diazaspiro(5.5)undecane-1,3,5-trione] the data give MP 288 °C (via OCHEM). For CC1(C)C(C(=O)c2cn(CCCCCF)c3ccccc23)C1(C)C [XLR-11] the data give MP 76.5 °C (via PubChem). The entry for Br.COc1ccc2c(c1)C13CCCCC1C(C2)N(C)CC3.O (configuration not stated) [Dextromethorphan hydrobromide monohydrate] lists MP 170 °C (via OCHEM).

For CCNC(=O)NC(=O)CCl [1-(2-Chloro-acetyl)-3-ethyl-urea] the data give MP 139 °C (via OCHEM). For COC(=O)[C@@H]1C[C@H](OC(C)=O)C(=O)[C@H]2[C@@]1(C)CC[C@H]1C(=O)O[C@H](c3ccoc3)C[C@]21C [Salvinorin A] the data give MP 239 °C (via PubChem). N=C(N)NN.O=S(=O)(O)O is reported with MP 125.8 °C (via eChemPortal). C[C@H](Cl)C(=O)c1ccc(Br)cc1 [1-(4-Bromophenyl)-2-chloropropan-1-one] is reported with MP 55 °C (via OCHEM). For CC(=O)NNC(=O)CCl [N'-acetyl-2-chloroacetohydrazide] the data give MP 158 °C (via OCHEM). The entry for CCc1nnc(NC(=O)CCl)s1 [2-Chloro-N-(5-ethyl-1,3,4-thiadiazol-2-yl)acetamide] lists MP 102 °C (via OCHEM). The entry for O=C(c1cc(Cl)c(Cl)[nH]1)C(Cl)(Cl)Cl [2,2,2-Trichloro-1-(4,5-dichloro-1H-pyrrol-2-yl)ethan-1-one] lists MP 130 °C (via OCHEM).

The entry for COc1ccc(OC)c(C(O)C(C)N)c1.Cl (configuration not stated) [Methoxamine hydrochloride] lists MP 214 °C (via OCHEM, PubChem). C[C@@H]1C[C@H](O)[C@]2(O)O[C@@H]3C[C@@]4(C=O)[C@@H](CC[C@@H]5[C@@H]4CC[C@]4(C)[C@@H](C6=CC(=O)OC6)CC[C@]54O)C[C@H]3O[C@@H]2O1 [Calotropin] is reported with MP 223 °C (via PubChem). For Cc1ccc(C(=O)CCl)cc1C [2-chloro-1-(3,4-dimethylphenyl)ethanone] the data give MP 52 °C (via OCHEM). Listed for O=[N+]([O-])CC[N+](=O)[O-] [Ethane, 1,2-dinitro-]: MP 39.5 °C (via OCHEM). Fc1ccc(CBr)c(Br)c1 [2-Bromo-4-fluorobenzyl bromide] has MP 52 °C (via OCHEM). CC(=O)OC(Cl)CCl (configuration not stated) [1,2-Dichloroethyl acetate] is reported with MP -32 °C (via PubChem). O=C1NC(=O)C2(CC2)C(=O)N1 [5,7-Diazaspiro(2.5)octane-4,6,8-trione] is reported with MP 325 °C (via OCHEM).

For CCCCCCCCCCCCCCCCOC(=O)Cl [Carbonochloridic acid, hexadecyl ester] the data give MP 14 °C (via eChemPortal). Listed for C#CCNC(=O)CCl [2-chloro-n-prop-2-ynylacetamide]: MP 65 °C (via OCHEM). For CC(C)(C)n1cc(C(=O)O)cn1 [1-tert-Butyl-1H-pyrazole-4-carboxylic acid] the data give MP 156 °C (via OCHEM). Fc1ccc2c(C3=CCNCC3)c[nH]c2c1 [6-fluoro-3-(1,2,3,6-tetrahydropyridin-4-yl)-1H-indole] has MP 174 °C (via OCHEM). Listed for CCCCCCCCCCCCCC(=O)O[C@@H]1[C@@H](C)[C@@]2(O)[C@@H](C=C(CO)C[C@]3(O)C(=O)C(C)=C[C@@H]23)[C@@H]2C(C)(C)[C@]12OC(C)=O [12-O-Tetradecanoylphorbol-13-acetate]: MP 72.22 °C (via PubChem). Listed for NS(=O)(=O)c1ccc(N2CCNCC2)cc1 [4-piperazin-1-ylbenzenesulfonamide]: MP 220 °C (via OCHEM). Listed for CCCCCCCCCC1(CC)C(=O)NC(=O)NC1=O [5-Nonyl-5-ethylbarbituric acid]: MP 113 °C (via OCHEM).

5 of these entries, quoted again:

| SMILES | name | MP (°C) | via |
|---|---|---|---|
| C[C@H](Cl)C(=O)c1ccc(Br)cc1 | 1-(4-Bromophenyl)-2-chloropropan-1-one | 55 | OCHEM |
| CCCCCCCCCC1(CC)C(=O)NC(=O)NC1=O | 5-Nonyl-5-ethylbarbituric acid | 113 | OCHEM |
| CCc1nnc(NC(=O)CCl)s1 | 2-Chloro-N-(5-ethyl-1,3,4-thiadiazol-2-yl)acetamide | 102 | OCHEM |
| COc1ccc(OC)c(C(O)C(C)N)c1.Cl (configuration not stated) | Methoxamine hydrochloride | 214 | OCHEM, PubChem |
| NS(=O)(=O)c1ccc(N2CCNCC2)cc1 | 4-piperazin-1-ylbenzenesulfonamide | 220 | OCHEM |

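The OPERA project collected these measurements from public sources as training and test data for property models. One number stands for a compound and property, with no spread given. Method, purity and exact conditions of the single measurements are not given. A value may pool stereoisomers or salt forms, and the file does not say which form was measured. Some entries may be limits or estimates that an upstream database listed as plain numbers.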

Source: data files of OPERA 2.9 (Mansouri et al.), github.com/kmansouri/OPERA.